Our source for the IC50 values is ChEMBL document CHEMBL1127448, “Synthesis, ligand binding, and QSAR (CoMFA and classical) study of 3 beta-(3'-substituted phenyl)-, 3 beta-(4'-substituted phenyl)-, and 3 beta-(3',4'-disubstituted phenyl)tropane-2 beta-carboxylic acid methyl esters” (J Med Chem, 1994).

The chains behind the UniProt entries cited, without tags or fusion partners.
UniProt P23977, whole entry: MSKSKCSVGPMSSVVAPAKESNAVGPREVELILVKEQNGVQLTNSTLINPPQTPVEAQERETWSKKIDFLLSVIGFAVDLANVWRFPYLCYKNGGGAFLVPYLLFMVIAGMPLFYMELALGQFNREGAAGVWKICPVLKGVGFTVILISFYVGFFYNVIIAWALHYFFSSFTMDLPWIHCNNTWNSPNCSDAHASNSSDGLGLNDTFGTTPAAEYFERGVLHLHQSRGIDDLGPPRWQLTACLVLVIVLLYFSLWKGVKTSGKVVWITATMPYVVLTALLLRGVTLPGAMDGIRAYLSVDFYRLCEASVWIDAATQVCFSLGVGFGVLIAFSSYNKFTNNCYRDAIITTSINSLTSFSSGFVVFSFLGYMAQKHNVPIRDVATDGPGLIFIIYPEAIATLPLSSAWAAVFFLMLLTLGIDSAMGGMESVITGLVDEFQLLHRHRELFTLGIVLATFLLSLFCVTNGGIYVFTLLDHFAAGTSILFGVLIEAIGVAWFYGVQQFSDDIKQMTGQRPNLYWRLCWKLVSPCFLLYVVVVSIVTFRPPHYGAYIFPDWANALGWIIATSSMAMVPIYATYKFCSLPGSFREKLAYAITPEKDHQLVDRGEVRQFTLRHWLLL

The experiment concerns the target Sodium-dependent dopamine transporter (Rattus norvegicus, UniProt P23977). In words: Concentration required to inhibit 50% of radioligand binding ([3H]WIN-35428) to the dopamine (DA) transporter in rat.

Turning to `COC(=O)[C@@H]1C2CC[C@H](C[C@@H]1c1ccc(OC)cc1)N2C`, the half-inhibitory concentration (IC50) amounted to 9.2 nM.

As usually defined, the IC50 is the midpoint of a concentration-inhibition curve. A higher IC50 goes with lower potency.
